Yeast mating assay 1: variants of the scFv Ab-14

The measurements come from Engelhart et al. 2022 (doi:10.1038/s41597-022-01779-4) through the FLAb antibody collection.

Antigen: PDVDLGDISGINAS, a 14-residue peptide of the SARS-CoV-2 spike HR2 region.

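Variants in AAYL49 differ from the parent at up to three CDR positions; double and triple changes were sampled at random. AlphaSeq pools MATa yeast showing the antibodies with MATalpha yeast showing the peptide. After mating in shaken culture at 30 °C for 16 h, diploids were selected and their barcode pairs sequenced. The ratio of observed to expected reads was calibrated, replicate by replicate, on BCL2-family standards whose Kd was known from biolayer interferometry. There are three technical replicates.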

Each scFv is VH, the linker GGGGSGGGGSGGGGS, VL, as in the parent Ab-14, and differs from it in the CDRs of the heavy chain only.
VH: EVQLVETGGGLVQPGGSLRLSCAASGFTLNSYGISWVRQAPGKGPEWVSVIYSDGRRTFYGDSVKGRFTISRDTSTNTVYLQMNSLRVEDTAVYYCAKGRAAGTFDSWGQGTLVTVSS
VL: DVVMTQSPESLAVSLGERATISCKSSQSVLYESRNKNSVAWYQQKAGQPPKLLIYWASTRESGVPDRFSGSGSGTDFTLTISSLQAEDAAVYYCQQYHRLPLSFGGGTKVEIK

Variants are written as CDR1, CDR2 and CDR3 of the heavy chain (limits as in the source). Parent: GFTLNSYGIS, VIYSDGRRTFYGDSVK, GRAAGTFDS.
Values are log10 of the apparent Kd in nM; lower means stronger binding.
Averages over replicates are reported, and they cover detected replicates only.
"n.d." means that the variant was in the library but no mating with the target was seen in that replicate; the authors take this as a sign of poor binding, and no number exists.

CDR-H1,CDR-H2,CDR-H3,"log10 Kd, replicates","mean, log10 nM",control signals
GFTLNSYMIS,VIYSDGRRTFYGDSVK,GRAAETFDI,n.d. 4.48 n.d.,4.48,1 of 9 (2.80)
GFTLNSYGIS,VIYSDGRRTFYYDSVK,GRAAGTFDS,n.d. n.d. n.d.,n.d.,1 of 9 (3.66)
GFTLNSYGIS,VIYSDGRNTFYGDNVK,HRAAGTFDS,4.82 3.73 5.06,4.54,4 of 9 (4.72)
GFTLNKYGIS,VIYSDGRRTFYGDSVY,GRAAGTFDK,2.32 2.05 2.19,2.19,0 of 9
TFTLNSYFIS,VIYSDGRRTFYTDSVK,GRAAGTFDS,3.42 n.d. n.d.,3.42,2 of 9 (4.16)
GFTLNSYIIS,VIYSDGRRTIYGHSVK,GRAAGTFDS,n.d. n.d. n.d.,n.d.,0 of 9
GFTLNSYGIS,KGYSDGRRTFYGDSVK,GRAAGTFDS,n.d. n.d. n.d.,n.d.,1 of 9 (2.09)
GFTLNSYGIA,VIYSDGRRTFYGASVK,GRAAGSFDS,n.d. n.d. n.d.,n.d.,1 of 9 (2.54)
GFTTNSYGIS,VIYSDGRRTFYEDSVK,CRAAGTFDS,4.82 4.03 n.d.,4.43,4 of 9 (4.80)
GFTLNSYGIS,VIHSDGRRCFYGDSVK,GRAAGKFDS,3.63 2.95 4.37,3.65,0 of 9
GFTLNSYGIS,VIYSDGDRTFYGDSVI,GRAAGTFDS,n.d. 1.42 3.19,2.31,0 of 9
GFTLNSYGIS,VIYSEGRRTFYGDWVK,GRAAGTFDS,n.d. 3.22 n.d.,3.22,1 of 9 (2.96)
GGTLNSYGIS,MIYSDGRRTFYGDSVK,GRAAGHFDS,n.d. n.d. n.d.,n.d.,1 of 9 (2.70)
GFTLNSSGIS,VIYSDGRRTFYGDSVK,SRAAGTQDS,4.93 n.d. n.d.,4.93,0 of 9
GFTLNSYGIS,VIYSDYRRTFYGDSVK,GRAAETNDS,n.d. n.d. n.d.,n.d.,0 of 9
GFTLNSLGIS,VIYSDGRRTFYGDSVK,GMAAGTFDP,2.33 2.03 2.64,2.33,3 of 9 (3.61)
GFTLNSYGAS,VIYSDVRRTFYGDSVK,GRAAGHFDS,n.d. n.d. n.d.,n.d.,0 of 9
GFTLNSYGIS,VIYSDGRWTFYGDSGK,GRAAGTFDS,n.d. n.d. n.d.,n.d.,0 of 9
GFTKNSYGIS,VILSDGRRTSYGDSVK,GRAAGTFDS,n.d. n.d. 4.84,4.84,2 of 9 (3.72)
GFTLNSYGIS,VIYCDGLRTFYGDSVP,GRAAGTFDS,n.d. n.d. n.d.,n.d.,1 of 9 (3.05)
GQTLNSYGIS,VIYSDGRRTFYGDSVE,GRAAGTFDL,5.62 n.d. n.d.,5.62,2 of 9 (5.19)
GFTANSYGIF,VIYSDGRRTFYGDSVK,GRAAGTFDS,n.d. n.d. n.d.,n.d.,0 of 9
GFTLNSYGIS,VIYSDGRRAYYGDSVK,RRAAGTFDS,n.d. n.d. n.d.,n.d.,1 of 9 (2.38)
GFTLNSYGIG,VIWSDGYRTFYGDSVK,GRAAGTFDS,n.d. n.d. n.d.,n.d.,0 of 9
GFTLNSPGIS,VIYSDGRRTFYGDSVK,VRAAWTFDS,n.d. n.d. n.d.,n.d.,1 of 9 (3.91)
GFTLNSYGIS,VIYWDGRRTFYGDSVK,GRAAGTFKS,n.d. n.d. n.d.,n.d.,0 of 9
GFTLNSYGIS,NIYSDGRRTFYGDSHK,FRAAGTFDS,n.d. n.d. n.d.,n.d.,0 of 9
GFTLNSYGIS,VIYSDGRCTFYGAAVK,GRAAGTFDS,4.90 n.d. n.d.,4.90,1 of 9 (3.98)
GFTENSYGIS,VTYSDGRRTFYGDSVK,GRAAGTFDW,n.d. n.d. n.d.,n.d.,1 of 9 (3.19)
DWTLNSYGIS,VIYSDGRRTFYGYSVK,GRAAGTFDS,4.58 n.d. 3.41,4.00,0 of 9
GFRLNSYGIS,VIYSIGRRTFYGDSVS,GRAAGTFDS,n.d. n.d. n.d.,n.d.,1 of 9 (3.07)
GFTLNSYGIS,PLYSDGRRTFYGDSVK,GRAHGTFDS,n.d. n.d. n.d.,n.d.,2 of 9 (3.66)
GFTLNSYGIS,VIYSDGRRTFLGTSKK,GRAAGTFDS,n.d. n.d. n.d.,n.d.,0 of 9
GFTLNSYGIS,VIYSVGRRTFYGDSQK,GRAAGTFDS,n.d. n.d. n.d.,n.d.,1 of 9 (5.75)
GFTLNFYGIS,VIYSDGRRTFIGPSVK,GRAAGTFDS,n.d. n.d. n.d.,n.d.,0 of 9
GFTLNSYGIS,KIYSDGMRTFYGDSVK,GRAAGTFDS,n.d. n.d. n.d.,n.d.,0 of 9
GFTLNSYGIS,HIYSDGRRTFYGDSVK,GNAAGTMDS,n.d. 4.56 6.13,5.35,2 of 9 (4.17)
GFTLNSYGFS,WIYSDGRRTFYGDSVK,GNAAGTFDS,n.d. n.d. n.d.,n.d.,1 of 9 (4.61)
GFPLNSYGIS,VIYSDGRREFYGDGVK,GRAAGTFDS,n.d. n.d. n.d.,n.d.,0 of 9
GFTHNSYFIS,VIYSDGRRTFYGDSVK,GRAAGTFDE,n.d. n.d. n.d.,n.d.,3 of 9 (3.98)
PFTLNSYGIS,VIYSDGRRLFYGDSNK,GRAAGTFDS,n.d. n.d. n.d.,n.d.,0 of 9
GFTLNSYGRS,VHYSRGRRTFYGDSVK,GRAAGTFDS,n.d. n.d. 3.37,3.37,0 of 9
GFTLNSSIIS,VIYSDGRRTFYGDSVK,GRAAGTLDS,3.82 n.d. n.d.,3.82,0 of 9
GFTHNSYGIS,PIYSDGRRTFYGDSVK,GRAAGTFGS,n.d. n.d. n.d.,n.d.,0 of 9
GFTLNFYGIS,VIYIDGRRTFYGDSVG,GRAAGTFDS,n.d. n.d. 5.44,5.44,2 of 9 (4.29)
GFTLNSYGIK,VISSDGRRTFYGDSIK,GRAAGTFDS,n.d. 3.66 4.48,4.07,0 of 9
GFTLNSYGMS,VIYSDGRRTFSGDSVK,GRWAGTFDS,n.d. n.d. n.d.,n.d.,1 of 9 (4.53)
WFTPNSYGIE,VIYSDGRRTFYGDSVK,GRAAGTFDS,3.84 n.d. n.d.,3.84,2 of 9 (3.65)

The first 5 entries again:

CDR-H1	CDR-H2	CDR-H3	log10 Kd, replicates	mean, log10 nM	control signals
GFTLNSYMIS	VIYSDGRRTFYGDSVK	GRAAETFDI	n.d. 4.48 n.d.	4.48	1 of 9 (2.80)
GFTLNSYGIS	VIYSDGRRTFYYDSVK	GRAAGTFDS	n.d. n.d. n.d.	n.d.	1 of 9 (3.66)
GFTLNSYGIS	VIYSDGRNTFYGDNVK	HRAAGTFDS	4.82 3.73 5.06	4.54	4 of 9 (4.72)
GFTLNKYGIS	VIYSDGRRTFYGDSVY	GRAAGTFDK	2.32 2.05 2.19	2.19	0 of 9
TFTLNSYFIS	VIYSDGRRTFYTDSVK	GRAAGTFDS	3.42 n.d. n.d.	3.42	2 of 9 (4.16)

Background: pairings of library AAYL49 with three empty control strains gave a value in 15% of cases (median 4.06, 5th percentile 2.83). Values in that range, when seen in few replicates, are hard to tell from nonspecific mating. Also given: how often the same scFv was detected with the empty control strains, with their mean in brackets.
Parent in this assay: reference entry 0.65, copy in this library 4.11 (one replicate of three).